Experimental data published in US9040533B2, “Oxime-substituted-quinoxaline-type piperidine compounds as ORL-1 modulators” (priority 2012, dated 2015).

Experiments:
[1] = biological target: T1, human opioid receptor-like (ORL-1) (Homo sapiens, UniProt P41146); experiment: In vitro ORL-1 receptor binding assay ([3H]-nociceptin displacement); conditions: read-out: ORL-1 Ki [Average ± Std Deviation]
[2] = biological target: T1, human opioid receptor-like (ORL-1); experiment: ORL-1 receptor [35S]GTPγS functional binding assay; type: biochemical; conditions: for EC50: read-out: GTPγS ORL-1 EC50 [mean ± SEM]
human μ-opioid receptors = human μ-opioid receptors (Homo sapiens, UniProt P35372); experiment: In vitro mu-opioid receptor binding assay ([3H]-diprenorphine displacement); conditions: read-out: Mu opioid receptor Ki [Average ± Std Deviation]
kappa opioid receptor = kappa opioid receptor (Homo sapiens, UniProt P41145); experiment: In vitro kappa-opioid receptor binding assay ([3H]-U69,593 displacement); conditions: read-out: Kappa opioid receptor Ki [Average ± Std Deviation]
delta opioid receptor = delta opioid receptor (Homo sapiens, UniProt P41143); experiment: In vitro delta-opioid receptor binding assay ([3H]-Naltrindole displacement); conditions: read-out: Delta opioid receptor Ki [Average ± Std Deviation]

| SMILES | Ki [1] | GTPγS ORL-1 Emax [mean ± SEM] [2] | EC50 [2] | Ki (human μ-opioid receptors) | Ki (kappa opioid receptor) | Ki (delta opioid receptor) |
| --- | --- | --- | --- | --- | --- | --- |
| CC(C)ON=C(CCC(=O)O)c1nc2ccccc2n([C@H]2C[C@H]3CCC[C@@H](C2)N3C2CC3CCCC(C3)C2)c1=O (stereo partly drawn) | 26.8 nM | 39.33 ± 2.4% | 5.2 nM | – | – | – |
| CO/N=C(\C(=O)O)c1nc2ccccc2n([C@H]2C[C@H]3CCC[C@@H](C2)N3C2CC3CCCC(C3)C2)c1=O (stereo partly drawn) | 1.86 nM | 53.0 ± 2.7% | 12 nM | 4520 nM | 1090 nM | > 20000 nM |
| CO/N=C(\CCC(=O)O)c1nc2ccccc2n([C@H]2C[C@H]3CCC[C@@H](C2)N3C2CC3CC(C)CC(C3)C2)c1=O (stereo partly drawn) | 2.18 nM | 33.0 ± 2.1% | 4.73 nM | 11.1 nM | 120 nM | 1610 nM |
| CO/N=C(\CCC(=O)O)c1nc2ccccc2n([C@H]2C[C@H]3CCC[C@@H](C2)N3C2CC3CCCCC(C3)C2)c1=O (stereo partly drawn) | 2.24 nM | 10.67 ± 0.67% | 22.6 nM | 28 nM | 139 nM | 3430 nM |
| CON=C(CCC(=O)O)c1nc2ccccc2n([C@H]2C[C@H]3CCC[C@@H](C2)N3C2CC3CCCC(C3)C2)c1=O (stereo partly drawn) [Compound 2, 4-[4-((1R,3R)—(S)-9-bicyclo[3.3.1]non-3-yl-9-aza-bicyclo[3.3.1]non-3-yl)-3-oxo-3,4-dihydro-quinoxalin-2-yl]-4-methoxyimino-butyric acid] | 9.34 nM | 19 ± 4% | 19.5 nM | – | – | – |
| O=C(O)CCC(=NOCCO)c1nc2ccccc2n([C@H]2C[C@H]3CCC[C@@H](C2)N3C2CC3CCCC(C3)C2)c1=O (stereo partly drawn) [Compound 3, 4-[4-((1R,3R)—(S)-9-Bicyclo[3.3.1]non-3-yl-9-aza-bicyclo[3.3.1]non-3-yl)-3-oxo-3,4-dihydro-quinoxalin-2-yl]-4-(2-hydroxy-ethoxyimino)-butyric acid] | 18.7 nM | 20.6 ± 1.2% | 32.2 nM | – | – | – |
| O=C(O)CCC(=NO)c1nc2ccccc2n([C@H]2C[C@H]3CCC[C@@H](C2)N3C2CC3CCCC(C3)C2)c1=O (stereo partly drawn) [Compound 7, 4-[4-((1R,3R)—(S)-9-bicyclo[3.3.1]non-3-yl-9-aza-bicyclo[3.3.1]non-3-yl)-3-oxo-3,4-dihydro-quinoxalin-2-yl]-4-hydroxyimino-butyric acid] | 5.64 nM | – | – | – | – | – |
| CO/N=C(\CCC(=O)O)c1nc2ccccc2n([C@H]2C[C@H]3CCC[C@@H](C2)N3C2CCCCCCCCC2)c1=O [Compound 9, 4-[4-((1R,3R,7S)-9-cyclodecyl-9-aza-bicyclo[3.3.1]non-3-yl)-3-oxo-3,4-dihydro-quinoxalin-2-yl]-4-methoxyimino-butyric acid] | 8.73 nM | 117.7 ± 4.2% | 64 nM | – | – | – |
| CO/N=C(\CCC(=O)O)c1nc2ccccc2n([C@H]2C[C@H]3CCC[C@@H](C2)N3C2CCCCCCCC2)c1=O [Compound 10, 4-[4-((1R,3R,7S)-9-cyclononyl-9-aza-bicyclo[3.3.1]non-3-yl)-3-oxo-3,4-dihydro-quinoxalin-2-yl]-4-methoxyimino-butyric acid] | – | 101.7 ± 3.5% | – | – | – | – |
| CCO/N=C(\CCC(=O)O)c1nc2ccccc2n([C@H]2C[C@H]3CCC[C@@H](C2)N3C2CC3CCCC(C3)C2)c1=O (stereo partly drawn) [Compound 11, 4-[4-((1R,3R,7S)-9-bicyclo[3.3.1]non-3-yl-9-aza-bicyclo[3.3.1]non-3-yl)-3-oxo-3,4-dihydro-quinoxalin-2-yl]-4-ethoxyimino-butyric acid] | 26.6 nM | 13.3 ± 0.3% | 85 nM | – | – | – |
| CON=C(CCC(=O)O)c1nc2ccccc2n([C@H]2C[C@H]3CC[C@@H](C2)N3C2CC3CCCCC(C3)C2)c1=O (stereo partly drawn) [Compound 12, 4-(4-((1R,3R)-8-(bicyclo[4.3.1]decan-8-yl)-8-azabicyclo[3.2.1]octan-3-yl)-3-oxo-3,4-dihydroquinoxalin-2-yl)-4-(methoxyimino)butanoic acid] | 4.48 nM | – | – | – | – | – |
| CON=C(CCC(=O)O)c1nc2ccccc2n([C@H]2C[C@H]3CC[C@@H](C2)N3C2CC3CCCC(C3)C2)c1=O (stereo partly drawn) [Compound 14, 4-(4-((1R,3R)-8-(bicyclo[3.3.1]nonan-3-yl)-8-azabicyclo[3.2.1]octan-3-yl)-3-oxo-3,4-dihydroquinoxalin-2-yl)-4-(methoxyimino)butanoic acid] | – | 37.3 ± 0.3% | – | – | – | – |
| C/C(=N\OCC(=O)O)c1nc2ccccc2n([C@H]2C[C@H]3CCC[C@@H](C2)N3C2CC3CCCC(C3)C2)c1=O (stereo partly drawn) [Compound 16] | 25.7 nM | 23.33 ± 2.96% | 48.5 nM | – | – | – |
| O=C(O)CCC(=NO)c1nc2ccccc2n([C@H]2C[C@H]3CCC[C@@H](C2)N3C2CCCCCCCCC2)c1=O [Compound 18] | 11.3 nM | 106.67 ± 5.78% | 77.8 nM | – | – | – |
| C/C(=N\OCC(=O)O)c1nc2ccccc2n([C@H]2C[C@H]3CCC[C@@H](C2)N3C2CCCCCCCCC2)c1=O [Compound 21] | – | 108 ± 1.73% | – | – | – | – |
| CCN(CC)CCO/N=C(\CCC(=O)O)c1nc2ccccc2n(C2C[C@H]3CCC[C@@H](C2)N3C2C[C@@H]3C[C@@H](C)C[C@H](C2)C3)c1=O (stereo partly drawn) [Compound 27] | 3.09 nM | 24 ± 0.71% | 4.97 nM | – | – | – |
| CC1CC2CC(C1)CC(N1[C@@H]3CCC[C@H]1C[C@@H](n1c(=O)c(/C(CCC(=O)O)=N/OCCN(C)C)nc4ccccc41)C3)C2 (stereo partly drawn) [Compound 29] | 3.33 nM | 20.5 ± 1.2% | 3.1 nM | – | – | – |

| SMILES | Ki [1] | GTPγS ORL-1 Emax [mean ± SEM] [2] | EC50 [2] | Ki (human μ-opioid receptors) | Ki (kappa opioid receptor) | Ki (delta opioid receptor) |
| --- | --- | --- | --- | --- | --- | --- |
| CCON=C(C(=O)O)c1nc2ccccc2n([C@H]2C[C@H]3CCC[C@@H](C2)N3C2CC3CCCCC(C3)C2)c1=O (stereo partly drawn) [Compound 32, 2-(4-((1R,3R)-9-(bicyclo[4.3.1]decan-8-yl)-9-azabicyclo[3.3.1]nonan-3-yl)-3-oxo-3,4-dihydroquinoxalin-2-yl)-2-(ethoxyimino)acetic acid] | 1.64 nM | 82 ± 8% | 16.6 nM | – | – | – |
| NC(=O)/C(=N\OCC(=O)O)c1nc2ccccc2n([C@H]2C[C@H]3CCC[C@@H](C2)N3C2CC3CCCC(C3)C2)c1=O (stereo partly drawn) [Compound 40] | – | 34.7 ± 3.8% | – | – | – | – |
| CNC(=O)CCC(=NOCC(=O)O)c1nc2ccccc2n([C@H]2C[C@H]3CCC[C@@H](C2)N3C2CC3CCCC(C3)C2)c1=O (stereo partly drawn) [Compound 42, 2-(((1-(4-((1R,1′R,3r,3′R,5S,5′S)-[3,9′-bi(9′-azabicyclo[3.3.1]nonan)]-3′-yl)-3-oxo-3,4-dihydroquinoxalin-2-yl)-4-(methylamino)-4-oxobutylidene)amino)oxy)acetic acid] | 33.6 nM | – | – | – | – | – |
| NC(=O)CCC(=NOCC(=O)O)c1nc2ccccc2n([C@H]2C[C@H]3CCC[C@@H](C2)N3C2CC3CCCC(C3)C2)c1=O (stereo partly drawn) [Compound 44] | 22.8 nM | – | – | – | – | – |
| NC(=O)CO/N=C(\C(=O)O)c1nc2ccccc2n([C@H]2C[C@H]3CCC[C@@H](C2)N3C2CC3CCCCC(C3)C2)c1=O (stereo partly drawn) [Compound 45, (Z)-2-(2-amino-2-oxoethoxyimino)-2-(4-((1R,3R)-9-(bicyclo[4.3.1]decan-8-yl)-9-azabicyclo[3.3.1]nonan-3-yl)-3-oxo-3,4-dihydroquinoxalin-2-yl)acetic acid] | 0.11 nM | 81 ± 5% | 2.17 nM | – | – | – |
| CON=C(CCC(=O)O)c1nc2ccccc2n([C@H]2C[C@H]3COC[C@@H](C2)N3C2CC3CCCCC(C3)C2)c1=O (stereo partly drawn) [Compound 48] | – | 44 ± 5% | – | – | – | – |
| CN(C)C(=O)C(=NOCC(=O)O)c1nc2ccccc2n([C@H]2C[C@H]3CCC[C@@H](C2)N3C2CC3CCCC(C3)C2)c1=O (stereo partly drawn) [Compound 51] | 22.9 nM | – | – | – | – | – |
| CNC(=O)C(=NOCC(=O)O)c1nc2ccccc2n([C@H]2C[C@H]3CCC[C@@H](C2)N3C2CC3CCCCC(C3)C2)c1=O (stereo partly drawn) [Compound 54] | 3.53 nM | 21.33 ± 0.33% | 91.2 nM | – | – | – |
| NC(=O)C(=NOCC(=O)O)c1nc2ccccc2n([C@H]2C[C@H]3CCC[C@@H](C2)N3C2CC3CCCCC(C3)C2)c1=O (stereo partly drawn) [Compound 55] | 1.64 nM | 13.33 ± 1.2% | 16.4 nM | – | – | – |
| COCCO/N=C(\CCC(=O)O)c1nc2ccccc2n([C@H]2C[C@H]3CCC[C@@H](C2)N3C2CC3CCCCC(C3)C2)c1=O (stereo partly drawn) [Compound 56] | 3.1 nM | – | – | – | – | – |
| CC(C)(ON=C(C(N)=O)c1nc2ccccc2n([C@H]2C[C@H]3CCC[C@@H](C2)N3C2CC3CCCC(C3)C2)c1=O)C(=O)O (stereo partly drawn) [Compound 57] | 13.1 nM | – | – | – | – | – |
| CNC(=O)CCC(=NOCC(=O)O)c1nc2ccccc2n([C@H]2C[C@H]3CCC[C@@H](C2)N3C2CC3CCCCC(C3)C2)c1=O (stereo partly drawn) [Compound 58] | 4.67 nM | – | – | – | – | – |
| NC(=O)CCC(=NOCC(=O)O)c1nc2ccccc2n([C@H]2C[C@H]3CCC[C@@H](C2)N3C2CC3CCCCC(C3)C2)c1=O (stereo partly drawn) [Compound 59] | 4.74 nM | – | – | – | – | – |
| N#CC(=NOCC(=O)O)c1nc2ccccc2n([C@H]2C[C@H]3CCC[C@@H](C2)N3C2CC3CCCC(C3)C2)c1=O (stereo partly drawn) [Compound 65, 2-((((4-((1R,1′R,3r,3′R,5S,5′S)-[3,9′-bi(9′-azabicyclo[3.3.1]nonan)]-3′-yl)-3-oxo-3,4-dihydroquinoxalin-2-yl)(cyano)methylene)amino)oxy)acetic acid] | 4.88 nM | −1% | – | – | – | – |
| NC(=O)CO/N=C(\C(N)=O)c1nc2ccccc2n([C@H]2C[C@H]3CCC[C@@H](C2)N3C2CC3CCCCC(C3)C2)c1=O (stereo partly drawn) [Compound 66] | 0.41 nM | 21.67 ± 2.03% | 1.81 nM | – | – | – |
| CC(C)ON=C(CCC(=O)O)c1nc2ccccc2n([C@H]2C[C@H]3CC[C@@H](C2)N3C2CC3CCCCC(C3)C2)c1=O (stereo partly drawn) [Compound 67] | 8.77 nM | 27 ± 1.15% | 27.6 nM | – | 104 nM | 11100 nM |
